Results from paper PMC6745270 (Neuropharmacology, 2019).

Experiment: Phase I metabolic stability in rat liver microsomes
Assay type: in vitro ADME
Settings: rat liver microsomes fortified with NADPH, 60 min incubation, 10 μM compound

With Buprenorphine [reference compound] the “% intact remaining” value was under 1%.
